# Test system: three Human Glioma Cell Lines
# Assay: MTT colorimetric assay, mean over the three glioma cell lines
# Format: cell-based
# Settings: mean of U373, T98G and Hs683, 72 hours (Table 1), read-out: IC50 (µM) In Vitro Growth Inhibitory Concentrations (MTT Colorimetric Assay) Mean ± SEM
# Method: Table 2: Bioselectivity determined by dividing the IC50 obtained with glioma cell lines by the IC50 obtained with normal astrocytes. Bioselectivity was determined only for those compounds whose mean + SEM values on the three human glioma cell lines were ≤ 20 µM.
row,SMILES,IC50
1,"CC(C)(C)OC(=O)Nc1ccc2c(c1)C(NC(=O)Nc1ccccc1Cl)CCO2 (racemic) [Example 1, R/S-N-2-chlorophenyl-N'-(6-tert-butoxycarbonylamino-3,4-dihydro-2H-1-benzopyran-4-yl)urea]",24 ± 1 µM
2,"CC(C)(C)OC(=O)Nc1ccc2c(c1)C(NC(=O)Nc1cccc(Cl)c1)CCO2 (racemic) [Example 2, R/S-N-3-chlorophenyl-N'-(6-tert-butoxycarbonylamino-3,4-dihydro-2H-1-benzopyran-4-yl)urea]",25 ± 3 µM
3,"CC(C)(C)OC(=O)Nc1ccc2c(c1)C(NC(=O)Nc1ccc(Cl)cc1)CCO2 (racemic) [Example 3, R/S-N-4-chlorophenyl-N'-(6-tert-butoxycarbonylamino-3,4-dihydro-2H-1-benzopyran-4-yl)urea]",> 70 µM
4,"CC(C)(C)OC(=O)Nc1ccc2c(c1)C(NC(=O)Nc1ccccc1C#N)CCO2 (racemic) [Example 4, R/S-N-2-cyanophenyl-N'-(6-tert-butoxycarbonylamino-3,4-dihydro-2H-1-benzopyran-4-yl)urea]",54 ± 6 µM
5,"CC(C)(C)OC(=O)Nc1ccc2c(c1)C(NC(=O)Nc1cccc(C#N)c1)CCO2 (racemic) [Example 5, R/S-N-3-cyanophenyl-N'-(6-tert-butoxycarbonylamino-3,4-dihydro-2H-1-benzopyran-4-yl)urea]",31 ± 4 µM
6,"CC(C)(C)OC(=O)Nc1ccc2c(c1)C(NC(=O)Nc1ccc(C#N)cc1)CCO2 (racemic) [Example 6, R/S-N-4-cyanophenyl-N'-(6-tert-butoxycarbonylamino-3,4-dihydro-2H-1-benzopyran-4-yl)urea]",41 ± 2 µM
7,"CC(C)(C)OC(=O)Nc1ccc2c(c1)C(NC(=O)Nc1cccc(C#N)c1)CC(C)(C)O2 (racemic) [Example 14, R/S-N-3-cyanophenyl-N'-(6-tert-butoxycarbonylamino-3,4-dihydro-2,2-dimethyl-2H-1-benzopyran-4-yl)urea]",2 ± 1 µM
8,"CC(C)(C)OC(=O)Nc1ccc2c(c1)C(NC(=O)Nc1ccc(C#N)cc1)CC(C)(C)O2 (racemic) [Example 15, R/S-N-4-cyanophenyl-N'-(6-tert-butoxycarbonylamino-3,4-dihydro-2,2-dimethyl-2H-1-benzopyran-4-yl)urea]",18 ± 5 µM
9,"CC(C)(C)OC(=O)Nc1ccc2c(c1)C(NC(=O)Nc1cccc(Cl)c1)CC(C)(C)O2 (racemic) [Example 16, R/S-N-3-chlorophenyl-N'-(6-tert-butoxycarbonylamino-3,4-dihydro-2,2-dimethyl-2H-1-benzopyran-4-yl)urea]",17 ± 3 µM
10,"CC(C)(C)OC(=O)Nc1ccc2c(c1)C(NC(=O)Nc1ccc(Cl)cc1)CC(C)(C)O2 (racemic) [Example 17, R/S-N-4-chlorophenyl-N'-(6-tert-butoxycarbonylamino-3,4-dihydro-2,2-dimethyl-2H-1-benzopyran-4-yl)urea]",25 ± 1 µM
11,"CC(C)(C)OC(=O)Nc1ccc2c(c1)C(NC(=O)Nc1ccc(F)cc1)CC(C)(C)O2 (racemic) [Example 18, R/S-N-4-fluorophenyl-N'-(6-tert-butoxycarbonylamino-3,4-dihydro-2,2-dimethyl-2H-1-benzopyran-4-yl)urea]",33 ± 1 µM
12,"CC(C)(C)OC(=O)Nc1ccc2c(c1)C(NC(=O)Nc1cccc(F)c1)CC(C)(C)O2 (racemic) [Example 19, R/S-N-3-fluorophenyl-N'-(6-tert-butoxycarbonylamino-3,4-dihydro-2,2-dimethyl-2H-1-benzopyran-4-yl)urea]",22 ± 2 µM
13,"CC(C)(C)OC(=O)Nc1ccc2c(c1)C(NC(=O)Nc1cccc(Br)c1)CC(C)(C)O2 (racemic) [Example 20, R/S-N-3-bromophenyl-N'-(6-tert-butoxycarbonylamino-3,4-dihydro-2,2-dimethyl-2H-1-benzopyran-4-yl)urea]",22 ± 2 µM
14,"CC(C)(C)OC(=O)Nc1ccc2c(c1)C(NC(=O)Nc1cc(F)cc(F)c1)CC(C)(C)O2 (racemic) [Example 21, R/S-N-3,5-difluorophenyl-N'-(6-tert-butoxycarbonylamino-3,4-dihydro-2,2-dimethyl-2H-1-benzopyran-4-yl)urea]",9 ± 3 µM
15,"CC(C)(C)OC(=O)Nc1ccc2c(c1)C(NC(=O)Nc1ccc([N+](=O)[O-])cc1)CC(C)(C)O2 (racemic) [Example 22, R/S-N-4-nitrophenyl-N'-(6-tert-butoxycarbonylamino-3,4-dihydro-2,2-dimethyl-2H-1-benzopyran-4-yl)urea]",23 ± 2 µM
16,"CC(C)(C)OC(=O)Nc1ccc2c(c1)C(NC(=O)Nc1cccc([N+](=O)[O-])c1)CC(C)(C)O2 (racemic) [Example 23, R/S-N-3-nitrophenyl-N'-(6-tert-butoxycarbonylamino-3,4-dihydro-2,2-dimethyl-2H-1-benzopyran-4-yl)urea]",8 ± 4 µM
17,"CC(C)(C)OC(=O)Nc1ccc2c(c1)C(NC(=O)Nc1ccc(C(F)(F)F)cc1)CC(C)(C)O2 (racemic) [Example 24, R/S-N-4-trifluoromethylphenyl-N'-(6-tert-butoxycarbonylamino-3,4-dihydro-2,2-dimethyl-2H-1-benzopyran-4-yl)urea]",12 ± 1 µM
18,"CC(C)(C)OC(=O)Nc1ccc2c(c1)C(NC(=O)Nc1cccc(C(F)(F)F)c1)CC(C)(C)O2 (racemic) [Example 25, R/S-N-3-trifluoromethylphenyl-N'-(6-tert-butoxycarbonylamino-3,4-dihydro-2,2-dimethyl-2H-1-benzopyran-4-yl)urea]",13 ± 4 µM
19,"CC(C)(C)OC(=O)Nc1ccc2c(c1)C(NC(=O)Nc1cc(Cl)cc(Cl)c1)CC(C)(C)O2 (racemic) [Example 26, R/S-N-3,5-dichlorophenyl-N'-(6-tert-butoxycarbonylamino-3,4-dihydro-2,2-dimethyl-2H-1-benzopyran-4-yl)urea]",9 ± 2 µM
20,"CC(C)(C)OC(=O)Nc1ccc2c(c1)C(NC(=O)Nc1ccccc1[N+](=O)[O-])CC(C)(C)O2 (racemic) [Example 27, R/S-N-2-nitrophenyl-N'-(6-tert-butoxycarbonylamino-3,4-dihydro-2,2-dimethyl-2H-1-benzopyran-4-yl)urea]",16 ± 3 µM
21,"CC(C)(C)OC(=O)Nc1ccc2c(c1)C(NC(=O)Nc1cc(C(F)(F)F)cc(C(F)(F)F)c1)CC(C)(C)O2 (racemic) [Example 29, R/S-N-3,5-di(trifluoromethyl)phenyl-N'-(6-tert-butoxycarbonylamino-3,4-dihydro-2,2-dimethyl-2H-1-benzopyran-4-yl)urea]",4 ± 1 µM
22,"CC(C)(C)OC(=O)Nc1ccc2c(c1)C(NC(=O)Nc1ccc(C(F)(F)F)cc1Cl)CC(C)(C)O2 (racemic) [Example 30, R/S-N-2-chloro-4-trifluoromethylphenyl-N'-(6-tert-butoxycarbonylamino-3,4-dihydro-2,2-dimethyl-2H-1-benzopyran-4-yl)urea]",28 ± 3 µM
23,"CC(C)(C)OC(=O)Nc1ccc2c(c1)C(NC(=O)Nc1cc(C(F)(F)F)ccc1Cl)CC(C)(C)O2 (racemic) [Example 31, R/S-N-2-chloro-5-trifluoromethylphenyl-N'-(6-tert-butoxycarbonylamino-3,4-dihydro-2,2-dimethyl-2H-1-benzopyran-4-yl)urea]",22 ± 8 µM
24,"CC(C)(C)OC(=O)Nc1ccc2c(c1)C(NC(=O)Nc1c(Cl)cccc1C(F)(F)F)CC(C)(C)O2 (racemic) [Example 32, R/S-N-2-chloro-6-trifluoromethylphenyl-N'-(6-tert-butoxycarbonylamino-3,4-dihydro-2,2-dimethyl-2H-1-benzopyran-4-yl)urea]",62 ± 2 µM
25,"CC(C)(C)OC(=O)Nc1ccc2c(c1)C(NC(=O)Nc1ccc(Cl)c(C(F)(F)F)c1)CC(C)(C)O2 (racemic) [Example 33, R/S-N-4-chloro-3-trifluoromethylphenyl-N'-(6-tert-butoxycarbonylamino-3,4-dihydro-2,2-dimethyl-2H-1-benzopyran-4-yl)urea]",22 ± 1 µM
26,"CC(C)(C)OC(=O)Nc1ccc2c(c1)C(NC(=O)Nc1ccc(Br)cc1)CC(C)(C)O2 (racemic) [Example 34, R/S-N-4-bromophenyl-N'-(6-tert-butoxycarbonylamino-3,4-dihydro-2,2-dimethyl-2H-1-benzopyran-4-yl)urea]",21 ± 1 µM
27,"CC(C)(C)OC(=O)Nc1ccc2c(c1)C(NC(=O)Nc1ccccc1Cl)CC(C)(C)O2 (racemic) [Example 35, R/S-N-2-chlorophenyl-N'-(6-tert-butoxycarbonylamino-3,4-dihydro-2,2-dimethyl-2H-1-benzopyran-4-yl)urea]",64 ± 19 µM
28,"CC(C)(C)OC(=O)Nc1ccc2c(c1)C(NC(=O)Nc1ccccc1C#N)CC(C)(C)O2 (racemic) [Example 36, R/S-N-2-cyanophenyl-N'-(6-tert-butoxycarbonylamino-3,4-dihydro-2,2-dimethyl-2H-1-benzopyran-4-yl)urea]",55 ± 6 µM
29,"CC(C)(C)OC(=O)Nc1ccc2c(c1)C(NC(=O)Nc1ccc(Cl)cc1C(F)(F)F)CC(C)(C)O2 (racemic) [Example 37, R/S-N-4-chloro-2-trifluoromethylphenyl-N'-(6-tert-butoxycarbonylamino-3,4-dihydro-2,2-dimethyl-2H-1-benzopyran-4-yl)urea]",34 ± 2 µM

# — patent EP2487171A1, “Dihydrobenzopyran, thiochroman, tetrahydroquinoleine and tetrahydronaphthalene derivatives and their use in anti-cancer therapy” (Université de Liège, priority 2011, dated 2012)
